PubChem BioAssay (NCI)
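Five compound concentrations were applied to cells in 96-well plates for 48 hours; endpoints were derived by simple linear interpolation of the resulting dose-response curve. The concentration for 50% growth inhibition is given as GI50. TGI: total growth inhibition.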

Legend:
Test in all cases: NCI-60 cell line screen, 48 h; in the data active = GI50 below about 0.43 µM; inactive = the rest
[1] = tested on: SF-539 CNS
[2] = tested on: BT-549 breast
[3] = tested on: MDA-MB-231 breast
[4] = tested on: A549 NSCLC
[5] = tested on: MDA-MB-435
[6] = tested on: 786-0 renal
[7] = tested on: SR leukemia
[8] = tested on: OVCAR-3 ovarian
[9] = tested on: HS 578T breast
[10] = tested on: HL-60(TB) leukemia
[11] = tested on: T-47D breast
[12] = tested on: NCI-H322M lung
[13] = tested on: MALME-3M melanoma
[14] = tested on: HCC-2998 colon
[15] = tested on: MOLT-4 leukemia
[16] = tested on: SK-MEL-2 melanoma
[17] = tested on: CAKI-1 renal
[18] = tested on: MCF7 breast
[19] = tested on: SW-620 colon
[20] = tested on: NCI-H522 lung
[21] = tested on: RPMI-8226 leukemia
[22] = tested on: NCI-H460 lung
[23] = tested on: ACHN renal
[24] = tested on: EKVX NSCLC
[25] = tested on: DU-145 prostate
[26] = tested on: OVCAR-4 ovarian
[27] = tested on: CCRF-CEM leukemia
[28] = tested on: IGROV1 ovarian
[29] = tested on: OVCAR-5 ovarian
[30] = tested on: SK-MEL-5 melanoma
[31] = tested on: HCT-15 colon
[32] = tested on: SNB-75 CNS
[33] = tested on: A498 renal
[34] = tested on: TK-10 renal
[35] = tested on: UO-31 renal
[36] = tested on: HOP-92 NSCLC
[37] = tested on: NCI/ADR-RES ovarian
[38] = tested on: UACC-257 melanoma
[39] = tested on: K-562 leukemia
[40] = tested on: KM12 colon
[41] = tested on: SK-OV-3 ovarian
[42] = tested on: NCI-H226 lung
[43] = tested on: SNB-19 CNS
[44] = tested on: UACC-62 melanoma
[45] = tested on: SF-295 CNS
[46] = tested on: SK-MEL-28 melanoma
[47] = tested on: HT29 colon
[48] = tested on: RXF 393 renal
[49] = tested on: LOX IMVI melanoma
[50] = tested on: COLO 205 colon
[51] = tested on: PC-3 prostate
[52] = tested on: NCI-H23 lung
[53] = tested on: SN12C renal
[54] = tested on: HCT-116 colon
[55] = tested on: HOP-62 NSCLC
[56] = tested on: U251 CNS
[57] = tested on: SF-268 CNS
[58] = tested on: OVCAR-8 ovarian

Cc1ccc(N(CCCl)CCCl)cc1
36.7 µM: TGI [7]
48.1 µM: TGI [33]
29.4 µM: TGI [5]
19.7 µM: TGI [6]
25.6 µM: TGI [57]
43.7 µM: TGI [36]
17.4 µM: TGI [20]
16.7 µM: TGI [48]
41.4 µM: TGI [52]
43.9 µM: TGI [13]
45.9 µM: TGI [38]
inactive: GI50 [1] 2.28 µM | GI50 [2] 16.8 µM | GI50 [3] 27.6 µM | GI50 [4] 6.87 µM | GI50 [5] 12 µM | GI50 [6] 2.67 µM | GI50 [7] 0.454 µM | GI50 [8] 13.1 µM | GI50 [9] 19.4 µM | GI50 [10] 0.868 µM | GI50 [11] 2.94 µM | GI50 [12] 28.9 µM | GI50 [13] 13.5 µM | GI50 [14] 14.8 µM | GI50 [15] 1.15 µM | GI50 [16] 11.7 µM | GI50 [17] 0.491 µM | GI50 [18] 0.977 µM | GI50 [19] 6.4 µM | GI50 [20] 3.59 µM | GI50 [21] 16.7 µM | GI50 [22] 0.69 µM | GI50 [23] 1.05 µM | GI50 [24] 28.9 µM | GI50 [25] 2.24 µM | GI50 [26] 14.3 µM | GI50 [27] 1.39 µM | GI50 [28] 11.3 µM | GI50 [29] 23.1 µM | GI50 [30] 12.3 µM | GI50 [31] 13.6 µM | GI50 [32] 3.14 µM | GI50 [33] 13.9 µM | GI50 [34] 2.92 µM | GI50 [35] 13 µM | GI50 [36] 4.44 µM | GI50 [37] 4.51 µM | GI50 [38] 10.8 µM | GI50 [39] 4.3 µM | GI50 [40] 23.9 µM | GI50 [41] 4.45 µM | GI50 [42] 11.9 µM | GI50 [43] 3.9 µM | GI50 [44] 1.52 µM | GI50 [45] 2.91 µM | GI50 [46] 16.1 µM | GI50 [47] 10.5 µM | GI50 [48] 3.96 µM | GI50 [49] 8.59 µM | GI50 [50] 14.2 µM | GI50 [51] 26.1 µM | GI50 [52] 3.04 µM | GI50 [53] 1.68 µM | GI50 [54] 8.56 µM | GI50 [55] 3.85 µM | GI50 [56] 5.01 µM | GI50 [57] 1.32 µM | GI50 [58] 4.55 µM
31.7 µM: TGI [55]
73.2 µM: TGI [28]
35.3 µM: TGI [42]
62.7 µM: TGI [47]
29.3 µM: TGI [16]
30.8 µM: TGI [54]
72.5 µM: TGI [50]
61.3 µM: TGI [46]
68.2 µM: TGI [56]
38.6 µM: TGI [34]
38 µM: TGI [2] | TGI [26]
40.6 µM: TGI [1] | TGI [14]
31 µM: TGI [11]
32.4 µM: TGI [8]
> 100 µM: TGI [3] | TGI [4] | TGI [9] | TGI [12] | TGI [17] | TGI [19] | TGI [21] | TGI [22] | TGI [23] | TGI [24] | TGI [27] | TGI [29] | TGI [31] | TGI [35] | TGI [37] | TGI [39] | TGI [40] | TGI [43] | TGI [45] | TGI [51] | TGI [53]
26.6 µM: TGI [30]
19.9 µM: TGI [25]
63.6 µM: TGI [58]
21.7 µM: TGI [10]
29 µM: TGI [15]
32 µM: TGI [41]
35.2 µM: TGI [49]
19.3 µM: TGI [44]
18.7 µM: TGI [32]
49.2 µM: TGI [18]
